# Source: patent US20210061861A1, “D-PEPTIDIC COMPOUNDS FOR VEGF” (Reflexion Pharmaceuticals, Inc., priority 2019, published 2021)
# Chains of the proteins cited; added tags and fusions are not shown. Residues count along the entry.
# UniProt P15692, 214-315: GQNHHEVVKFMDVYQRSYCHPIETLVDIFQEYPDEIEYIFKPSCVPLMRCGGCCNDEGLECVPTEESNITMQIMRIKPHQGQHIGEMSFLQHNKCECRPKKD
# Target: VEGF-A (Homo sapiens, UniProt P15692)
# Experiment: SPR binding of D-peptidic compounds to L-VEGF-A
# Parameters: Biotinylated VEGF-A(8-109) was immobilized on a biotin CAPture chip
# Details: Table 4, D-peptidic Z and GA domains
smiles,measurement,value
"CC[C@@H](C)[C@@H](NC(=O)CNC(=O)[C@@H](C)NC(=O)[C@@H](CCCCN)NC(=O)[C@@H](CCCCN)NC(=O)[C@@H](CC(C)C)NC(=O)[C@@H](CCC(=O)O)NC(=O)[C@@H](C)NC(=O)[C@H](NC(=O)[C@@H](C)NC(=O)[C@@H](CC(=O)O)NC(=O)[C@@H](CCC(=O)O)NC(=O)[C@@H](CCCCN)NC(=O)[C@@H](C)NC(=O)[C@@H](CC(N)=O)NC(=O)[C@@H](CCCCN)NC(=O)[C@@H](CC(C)C)NC(=O)[C@@H](CC(C)C)NC(=O)[C@@H](Cc1c[nH]c2ccccc12)NC(=O)[C@@H](CCC(N)=O)NC(=O)[C@@H](CC(=O)O)NC(=O)[C@H](NC(=O)[C@H](N)[C@H](C)O)[C@H](C)CC)[C@H](C)CC)C(=O)N[C@@H](C(=O)N[C@H](CO)C(=O)N[C@H](CC(=O)O)C(=O)N[C@H](Cc1ccccc1)C(=O)N[C@H](Cc1ccc(O)cc1)C(=O)N[C@H](Cc1ccccc1)C(=O)N[C@H](CC(N)=O)C(=O)N[C@H](C)C(=O)N[C@@H](C(=O)N[C@H](CC(N)=O)C(=O)N[C@H](CCCCN)C(=O)N[C@H](C)C(=O)N[C@H](CCCCN)C(=O)N[C@@H](C(=O)N[C@@H](C(=O)N[C@H](CCC(=O)O)C(=O)N[C@H](CCC(=O)O)C(=O)N[C@@H](C(=O)N[C@H](CC(N)=O)C(=O)N[C@H](C)C(=O)N[C@H](CC(C)C)C(=O)N[C@H](CCCCN)C(=O)N[C@H](CC(N)=O)C(=O)N[C@H](CCC(=O)O)C(=O)N[C@@H](C(=O)N[C@H](CC(C)C)C(=O)N[C@H](CCCCN)C(=O)N[C@H](C)C(=O)N[C@H](Cc1c[nH]cn1)C(=O)N[C@H](C)C(=O)O)[C@H](C)CC)C(C)C)C(C)C)[C@H](C)O)[C@H](C)CC)[C@H](C)O [GAdomain wt, tidqwllknakedaiaelkkaGitsdfyfnainkaktveevnalkneilkaha, reference compound]","VEGF Binding Affinity (KD, nM)",No
